Laboratory results from ChEMBL document CHEMBL1770112 (Eur J Med Chem, 2011).

Sequences of proteins named here, by UniProt entry; tags and fusion partners are left off.
UniProt Q01827, whole entry: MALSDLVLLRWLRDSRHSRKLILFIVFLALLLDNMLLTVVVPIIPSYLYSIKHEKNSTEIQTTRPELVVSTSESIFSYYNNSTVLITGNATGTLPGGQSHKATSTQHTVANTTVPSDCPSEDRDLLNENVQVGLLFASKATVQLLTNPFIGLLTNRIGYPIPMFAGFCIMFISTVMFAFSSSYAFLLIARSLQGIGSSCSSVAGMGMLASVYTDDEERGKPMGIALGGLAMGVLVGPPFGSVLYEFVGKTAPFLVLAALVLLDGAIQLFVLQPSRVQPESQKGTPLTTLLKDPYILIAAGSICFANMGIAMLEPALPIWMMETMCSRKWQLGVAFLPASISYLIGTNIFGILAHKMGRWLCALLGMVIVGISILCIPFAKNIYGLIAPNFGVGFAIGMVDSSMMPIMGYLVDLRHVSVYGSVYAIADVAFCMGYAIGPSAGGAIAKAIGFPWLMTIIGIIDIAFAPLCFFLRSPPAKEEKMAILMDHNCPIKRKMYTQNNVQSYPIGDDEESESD

Molecular target: Synaptic vesicular amine transporter (Rattus norvegicus, UniProt Q01827)
Experiment: Displacement of [3H]DHTBZ from Sprague-Dawley rat striatum VMAT2 after 1 hr by liquid scintillation counting

**Q.** How did the Ki turn out when `COc1cc2c(cc1OC)[C@H]1CC(=O)[C@H](CC(C)C)CN1CC2` was run?
**A.** 4.47 nM
